Source: PubChem BioAssay (NCI)
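Each compound was tested at five concentrations against cells in 96-well plates for 48 hours. At the GI50, growth is halved. TGI is the concentration that stops growth completely.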

Tests used:
Assay in all cases: NCI-60 cell line screen, 48 h
786-0 renal = tested on: 786-0 renal
A498 renal = tested on: A498 renal
A549 NSCLC = tested on: A549 NSCLC
ACHN renal = tested on: ACHN renal
CCRF-CEM leukemia = tested on: CCRF-CEM leukemia
COLO 205 colon = tested on: COLO 205 colon
DLD-1 colon = tested on: DLD-1 colon
DMS 114 small cell lung = tested on: DMS 114 small cell lung
DMS 273 small cell lung = tested on: DMS 273 small cell lung
EKVX NSCLC = tested on: EKVX NSCLC
HCC-2998 colon = tested on: HCC-2998 colon
HCT-116 colon = tested on: HCT-116 colon
HCT-15 colon = tested on: HCT-15 colon
HL-60(TB) leukemia = tested on: HL-60(TB) leukemia
HOP-18 NSCLC = tested on: HOP-18 NSCLC
HOP-62 NSCLC = tested on: HOP-62 NSCLC
HT29 colon = tested on: HT29 colon
IGROV1 ovarian = tested on: IGROV1 ovarian
K-562 leukemia = tested on: K-562 leukemia
KM12 colon = tested on: KM12 colon
KM20L2 colon = tested on: KM20L2 colon
LOX IMVI melanoma = tested on: LOX IMVI melanoma
LXFL 529 NSCLC = tested on: LXFL 529 NSCLC
M14 melanoma = tested on: M14 melanoma
M19-MEL melanoma = tested on: M19-MEL melanoma
MALME-3M melanoma = tested on: MALME-3M melanoma
MOLT-4 leukemia = tested on: MOLT-4 leukemia
NCI-H23 lung = tested on: NCI-H23 lung
NCI-H322M lung = tested on: NCI-H322M lung
NCI-H460 lung = tested on: NCI-H460 lung
NCI-H522 lung = tested on: NCI-H522 lung
OVCAR-3 ovarian = tested on: OVCAR-3 ovarian
OVCAR-4 ovarian = tested on: OVCAR-4 ovarian
OVCAR-5 ovarian = tested on: OVCAR-5 ovarian
OVCAR-8 ovarian = tested on: OVCAR-8 ovarian
RXF 393 renal = tested on: RXF 393 renal
SF-268 CNS = tested on: SF-268 CNS
SF-539 CNS = tested on: SF-539 CNS
SK-MEL-2 melanoma = tested on: SK-MEL-2 melanoma
SK-MEL-28 melanoma = tested on: SK-MEL-28 melanoma
SK-MEL-5 melanoma = tested on: SK-MEL-5 melanoma
SK-OV-3 ovarian = tested on: SK-OV-3 ovarian
SN12C renal = tested on: SN12C renal
SNB-19 CNS = tested on: SNB-19 CNS
SNB-75 CNS = tested on: SNB-75 CNS
SNB-78 CNS = tested on: SNB-78 CNS
SR leukemia = tested on: SR leukemia
SW-620 colon = tested on: SW-620 colon
U251 CNS = tested on: U251 CNS
UACC-62 melanoma = tested on: UACC-62 melanoma
UO-31 renal = tested on: UO-31 renal

## CN1C(=O)N(C)P12(Cl)N(C)C(=O)N2C
786-0 renal
  GI50: > 100 µM
  TGI: > 100 µM
A498 renal
  GI50: > 100 µM
  TGI: > 100 µM
A549 NSCLC
  GI50: > 100 µM
  TGI: > 100 µM
ACHN renal
  GI50: > 100 µM
  TGI: > 100 µM
CCRF-CEM leukemia
  GI50: > 100 µM
  TGI: > 100 µM
COLO 205 colon
  GI50: > 100 µM
  TGI: > 100 µM
DLD-1 colon
  GI50: > 100 µM
  TGI: > 100 µM
DMS 114 small cell lung
  GI50: > 100 µM
  TGI: > 100 µM
DMS 273 small cell lung
  GI50: > 100 µM
  TGI: > 100 µM
EKVX NSCLC
  GI50: > 100 µM
  TGI: > 100 µM
HCC-2998 colon
  GI50: > 100 µM
  TGI: > 100 µM
HCT-116 colon
  GI50: > 100 µM
  TGI: > 100 µM
HCT-15 colon
  GI50: > 100 µM
  TGI: > 100 µM
HL-60(TB) leukemia
  GI50: > 100 µM
  TGI: > 100 µM
HOP-18 NSCLC
  GI50: > 100 µM
  TGI: > 100 µM
HOP-62 NSCLC
  GI50: > 100 µM
  TGI: > 100 µM
HT29 colon
  GI50: > 100 µM
  TGI: > 100 µM
IGROV1 ovarian
  GI50: > 100 µM
  TGI: > 100 µM
K-562 leukemia
  GI50: > 100 µM
  TGI: > 100 µM
KM12 colon
  GI50: > 100 µM
  TGI: > 100 µM
KM20L2 colon
  GI50: > 100 µM
  TGI: > 100 µM
LOX IMVI melanoma
  GI50: > 100 µM
  TGI: > 100 µM
LXFL 529 NSCLC
  GI50: > 100 µM
  TGI: > 100 µM
M14 melanoma
  GI50: > 100 µM
  TGI: > 100 µM
M19-MEL melanoma
  GI50: > 100 µM
  TGI: > 100 µM
MALME-3M melanoma
  GI50: > 100 µM
  TGI: > 100 µM
MOLT-4 leukemia
  GI50: > 100 µM
  TGI: > 100 µM
NCI-H23 lung
  GI50: > 100 µM
  TGI: > 100 µM
NCI-H322M lung
  GI50: > 100 µM
  TGI: > 100 µM
NCI-H460 lung
  GI50: > 100 µM
  TGI: > 100 µM
NCI-H522 lung
  GI50: > 100 µM
  TGI: > 100 µM
OVCAR-3 ovarian
  GI50: > 100 µM
  TGI: > 100 µM
OVCAR-4 ovarian
  GI50: > 100 µM
  TGI: > 100 µM
OVCAR-5 ovarian
  GI50: > 100 µM
  TGI: > 100 µM
OVCAR-8 ovarian
  GI50: > 100 µM
  TGI: > 100 µM
RXF 393 renal
  GI50: > 100 µM
  TGI: > 100 µM
SF-268 CNS
  GI50: > 100 µM
  TGI: > 100 µM
SF-539 CNS
  GI50: > 100 µM
  TGI: > 100 µM
SK-MEL-2 melanoma
  GI50: > 100 µM
  TGI: > 100 µM
SK-MEL-28 melanoma
  GI50: > 100 µM
  TGI: > 100 µM
SK-MEL-5 melanoma
  GI50: > 100 µM
  TGI: > 100 µM
SK-OV-3 ovarian
  GI50: > 100 µM
  TGI: > 100 µM
SN12C renal
  GI50: > 100 µM
  TGI: > 100 µM
SNB-19 CNS
  GI50: > 100 µM
  TGI: > 100 µM
SNB-75 CNS
  GI50: > 100 µM
  TGI: > 100 µM
SNB-78 CNS
  GI50: > 100 µM
  TGI: > 100 µM
SR leukemia
  GI50: > 100 µM
  TGI: > 100 µM
SW-620 colon
  GI50: > 100 µM
  TGI: > 100 µM
U251 CNS
  GI50: > 100 µM
  TGI: > 100 µM
UACC-62 melanoma
  GI50: > 100 µM
  TGI: > 100 µM
UO-31 renal
  GI50: > 100 µM
  TGI: > 100 µM
